We go through one molecule from US7772251B2, “N-sulphonylated amino acid derivatives, method for the production and use thereof” (The Medicines Company (Leipzig) GmbH, priority 2003, dated 2010).

As a reminder, the Ki is a dissociation constant, usually derived from enzyme kinetics or from competition with a known ligand. Higher therefore signals a looser hold on the target.

This test has as its target T1, matriptase (Homo sapiens, UniProt Q9Y5Y6).
T1 construct: Met-Lys-(His)6 (N, cleaved yes); made in house; host or cells: Escherichia coli BL21 (DE3), vector pET24
T1 sequence (Q9Y5Y6 615-854 limits assumed): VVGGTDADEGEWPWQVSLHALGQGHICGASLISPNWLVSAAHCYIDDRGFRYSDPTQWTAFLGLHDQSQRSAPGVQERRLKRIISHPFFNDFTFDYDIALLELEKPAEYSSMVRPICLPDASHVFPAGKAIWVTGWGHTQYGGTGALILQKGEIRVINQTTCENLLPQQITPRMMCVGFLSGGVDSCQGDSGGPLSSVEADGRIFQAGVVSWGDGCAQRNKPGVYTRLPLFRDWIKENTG
Kind of test: Determination of Ki values for the inhibition of matriptase (chromogenic substrate CH3SO2-D-HHT-Gly-Arg-pNA). The class given is biochemical. The settings on record: 25° C, pH 8.0, Dixon method, average of three determinations.

Each structure is given as a SMILES string.

`CC(C)c1cc(C(C)C)c(S(=O)(=O)NC(Cc2cccc(C(=N)N)c2)C(=O)N2CCN(C(=O)C3CCN(C(=N)N)CC3)CC2)c(C(C)C)c1` (stereo not shown) [Compound 64] gave a Ki of 14 nM.
